Data taken from ChEMBL document CHEMBL5120927, “LEGO-Lipophosphonoxins: A Novel Approach in Designing Membrane Targeting Antimicrobials” (J Med Chem, 2022).

What was measured:
Staphylococcus aureus [1] = settings: 4862/C, time 24.0 hrs
Staphylococcus aureus [2] = settings: 4880/C, time 24.0 hrs
Staphylococcus aureus [3] = settings: 5017/C, time 24.0 hrs

Measured: MIC

GENTAMICIN
0.5 µg/mL: all assays above
